This is an account of results in publication PMC5940271.

The experiment addresses HLA-A*02:01 MHC class I monomer (heavy chain and β2-microglobulin). The experiment is described as follows: mass spectrometry of peptides eluted from MHC I after exchange.

Take […] (EBV BMLF-1-A2) (peptide): the efficiency of exchange (peptide eluted from MHC I, MS) worked out at 70.7%.
